Data as given in ChEMBL document CHEMBL1833909, “Synthesis and structure-activity relationships of 4,5-fused pyridazinones as histamine H₃ receptor antagonists” (Bioorg Med Chem Lett, 2011).

The chains behind the UniProt entries cited, without tags or fusion partners. Where a name states a change or a piece, a line headed by the entry shows the natural chain unless it says otherwise.
UniProt Q9QYN8: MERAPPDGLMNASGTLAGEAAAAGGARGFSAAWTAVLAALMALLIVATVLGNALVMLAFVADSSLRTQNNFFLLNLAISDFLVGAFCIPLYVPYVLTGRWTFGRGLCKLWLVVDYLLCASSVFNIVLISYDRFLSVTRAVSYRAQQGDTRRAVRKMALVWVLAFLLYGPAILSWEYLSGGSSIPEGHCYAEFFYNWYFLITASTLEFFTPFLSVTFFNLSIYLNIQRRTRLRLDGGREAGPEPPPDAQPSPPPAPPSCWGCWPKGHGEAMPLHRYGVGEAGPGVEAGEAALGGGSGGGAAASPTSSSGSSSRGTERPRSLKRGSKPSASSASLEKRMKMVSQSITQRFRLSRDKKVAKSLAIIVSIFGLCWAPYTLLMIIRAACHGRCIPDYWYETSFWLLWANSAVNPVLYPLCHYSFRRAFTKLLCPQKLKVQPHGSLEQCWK

Target: Histamine H3 receptor (Rattus norvegicus, UniProt Q9QYN8)
Assay: Displacement of [3H]-NAMH from rat histamine H3 receptor expressed in CHO cells
Format: cell-based

Ki: 3 nM
Compound: C[C@@H]1CCCN1CCc1cc2cc(-c3ccc(C#N)cc3)ccc2o1
